Assay results taken from US5468854A, “Characterization of specific drug receptors with fluorescent ligands” (Pharmaceutical Discovery Corporation, priority 1993, dated 1995).
Several values for one entry are separate records, joined by “and”; a condition that tells them apart may be missing. Equal entries are not always repeated. Where two headings read alike, the source gives them in different places.

Assays:
BZ receptors [1] = assay: Displacement of BD 621 or BD 607 (50 nM) binding to cortical membranes by fluorescence measurement; set-up: species or system rat (Sprague-Dawley)
BZ receptors [2] = assay: Inhibition of [3H]Ro 15-1788 (0.7 nM) binding to cortical membranes; set-up: species or system rat (Sprague-Dawley); conditions: for Ki: read-out: Kl, inhibition of [3H]Ro 15-1788 binding
benzodiazepine receptors [3] = assay: Fluorescent ligand binding (BD 621, BD 607) to cortical membranes: association, dissociation, saturation; set-up: species or system rat (Sprague-Dawley)
BZ receptors [4] = assay: Attenuation of fluorescent ligand and radioligand binding in tissues photoaffinity labeled with Ro 15-4513; set-up: species or system rat (Sprague-Dawley); conditions: in words
[5] = Fluorescence spectra, quantum yield, extinction coefficient and solvent/tissue dependence of fluorescence; assay type: physicochemical
benzodiazepine receptors [6] = assay: BD 623 fluorescence quenching/dequenching assay in brain membranes; assay type: binding, rat (Sprague-Dawley); conditions: for fluorescence on addition to brain membranes: suspension of brain membranes
[7] = Storage stability in Me2SO (TLC); assay type: physicochemical; conditions: several months, dark, -80° C.
benzodiazepine receptors [8] = assay: [3H]Ro 15-1788 radioligand binding assay (filtration), Example 4; conditions: read-out: Kl, inhibition of [3H]Ro 15-1788 binding; 2-64 nM BD 623, 1.0 nM radioligand, n=3
BZ receptors [9] = assay: Inhibition of BD 621 binding in cerebellar membrane; set-up: species or system rat; conditions: read-out: Kl, inhibition of BD 621 binding
BZ receptors [10] = assay: Inhibition of [3H]Ro 15-1788 binding in cerebellar membrane; set-up: species or system rat; conditions: read-out: Kl, inhibition of [3H]Ro 15-1788 binding
benzodiazepine receptors [11] = conditions: membrane preparations of rat brain; cited from earlier work
BZ receptors [12] = assay: Radioligand saturation binding ([3H]Ro 15-1788, [3H]flunitrazepam) to cortical membranes; set-up: species or system rat (Sprague-Dawley)
[13] = aqueous sodium fluorescein, reference (18); cited from earlier work
[14] = 64-2048 nM, BD 621 or BD 607 50 nM
[15] = compared with tissue suspension or buffer
[16] = BD 623 6.25-100 nM, dequenched with flurazepam (100 μM), n=3
[17] = read-out: Kl, inhibition of BD 607 binding
[18] = read-out: Kl, inhibition of BD 621 binding
[19] = 0.25-12 nM radioligand, 4° C., terminated by centrifugation

C[N+]1(C)CCc2cc3c(cc2C1C1OC(=O)c2c1ccc1c2OCO1)OCO3 (single isomer, unassigned) [BMI, bicuculline methiodide]
reduction in BD 621 or BD 607 binding (BZ receptors [1]; [14]): No significant reduction
alteration of [3H]Ro 15-1788 binding (BZ receptors [2]; 64-2048 nM, cortical membranes): not altered

O=C(NCCN1C(=O)CN=C(c2ccccc2F)c2cc(Cl)ccc21)c1ccc2c(c1)C(=O)OC21c2ccc(O)cc2Oc2cc(O)ccc21 [BD 607]
reversibility of binding (benzodiazepine receptors [3]; fluorescence measurement): reversible
apparent affinities for BZ receptors compared with parent BZs Ro 15-1788 and Ro 7-1986 (benzodiazepine receptors [3]; from KD by fluorescence and Ki by inhibition of radioligand binding): reduced
Bmax (benzodiazepine receptors [3]; saturation isotherm, fluorescence measurement, cortical membranes, 4° C., centrifugation, mean ± SEM): 4.5±0.2 pmol/mg protein
Kd (benzodiazepine receptors [3]; saturation isotherm, fluorescence measurement, cortical membranes, 4° C., centrifugation, mean ± SEM, three determinations): 74 ± 4 nM
Ki (BZ receptors [2]): 165 ± 3 nM
effect of photoaffinity labeling with Ro 15-4513 on binding (BZ receptors [4]): abolished
emission maximum [5]: 521 nm
excitation maximum [5]: 494 nm
fluorescence intensity in ethanol [5, 15]: reduced
fluorescence intensity in ethyl acetate [5, 15]: greatly increased

CN1Cc2c(C(=O)OCCCNc3ccc([N+](=O)[O-])c4nonc34)ncn2-c2ccc(F)cc2C1=O [BD 623]
reversibility of BD 623 binding (benzodiazepine receptors [6]): bound reversibly
Bmax by fluorescence quenching (benzodiazepine receptors [6]; [16]): 7.2±0.4 pmol/mg of protein
Kd (benzodiazepine receptors [6]; [16]): 13.9 nM
reduction of quenched fluorescence (specific quenching) in photoaffinity-labeled membranes (benzodiazepine receptors [6]; membranes photoaffinity labeled with Ro 15-4513 (50 nM)): 77%
fluorescence on addition to brain membranes (benzodiazepine receptors [6]): time-dependent quenching of its fluorescence
fluorescence on addition to brain membranes (benzodiazepine receptors [6]; listed as BD-623): time-dependent quenching of fluorescence
excitation maximum [5]: 486±2 nm and 486 nm
quantum yield ([5]; 50 mM Tris citrate (pH 7.4), sodium fluorescein as standard): 0.02
extinction coefficient ([5]; 22° C., 50 mM Tris citrate (pH 7.4)): 17,600 M^-1 cm^-1
quantum yield in heat-denatured membranes and in 10% and 20% ethanol ([5]; boiling water bath for 10 min, 10% and 20% ethanol): increased quantum yield
fluorescence intensity in presence vs. absence of tissue ([5]; tissue containing 100 μM flurazepam vs. Tris citrate buffer): significantly greater in the presence
decomposition in Me2SO solution [7]: did not undergo detectable decomposition
Ki (benzodiazepine receptors [8]): 5.7 nM

Cc1nnc2ccc(-c3cccc(C(F)(F)F)c3)nn12 [CL 218,872]
Ki (BZ receptors [1]; [17]): 115 ± 40 nM
Ki (BZ receptors [1]; [18]): 90 ± 25 nM
Ki (BZ receptors [2]): 205 ± 3.5 nM
Ki (BZ receptors [9]): 62 ± 7.7 nM
Ki (BZ receptors [10]): 239 ± 19 nM

NCCCC(=O)O [GABA, gamma-aminobutyric acid]
effect on [3H]alprazolam binding (benzodiazepine receptors [11]): enhanced

CN1C(=O)CN=C(c2ccc(Cl)cc2)c2cc(Cl)ccc21 [Ro 5-4864]
reduction in BD 621 or BD 607 binding (BZ receptors [1]): No significant reduction
alteration of [3H]Ro 15-1788 binding (BZ receptors [2]): not altered

CN1C(=O)CN=C(c2ccccc2F)c2cc([N+](=O)[O-])ccc21 [[^3 H] flunitrazepam]
Bmax (BZ receptors [12]; [19]): 4.1±0.1 pmol/mg protein
Kd (BZ receptors [12]; [19]): 3.4 ± 0.5 nM
Bmax (BZ receptors [12]; terminated by filtration): 2.5 ± 0.3 pmol/mg protein
Kd (BZ receptors [12]; terminated by filtration): 2.6 ± 0.1 nM

Cc1nnc2n1-c1ccc(Cl)cc1C(c1ccccc1)=NC2 [[^3 H]alprazolam]
affinity of [3H]alprazolam (benzodiazepine receptors [11]): low nanomolar affinity

CN1[C@@H]2CC[C@H]1C[C@@H](OC(=O)C(CO)c1ccccc1)C2 (stereo partly drawn) [atropine]
reduction in BD 621 or BD 607 binding (BZ receptors [1]): No significant reduction
alteration of [3H]Ro 15-1788 binding (BZ receptors [2]): not altered

CN1C(=O)CN=C(c2ccccc2)c2cc(Cl)ccc21 [diazepam]
Ki (BZ receptors [1]; [17]): 11.4 ± 6.5 nM
Ki (BZ receptors [1]; [18]): 18 ± 1.9 nM
Ki (BZ receptors [2]): 26 ± 2 nM

CCN(CC)CCN1C(=O)CN=C(c2ccccc2F)c2cc(Cl)ccc21 [flurazepam]
Ki (BZ receptors [1]; [17]): 34.2 ± 3.4 nM
Ki (BZ receptors [1]; [18]): 23 ± 2.9 nM
Ki (BZ receptors [2]): 41 ± 1 nM
Ki (BZ receptors [9]): 14 ± 1.4 nM
Ki (BZ receptors [10]): 51 ± 0.2 nM
fluorescence at 542 nm relative to total fluorescence intensity ([5]; flurazepam 100 μM): < 0.1%

C=CCN1CC[C@]23c4c5ccc(O)c4O[C@H]2C(=O)CC[C@@]3(O)[C@H]1C5 [naloxone]
reduction in BD 621 or BD 607 binding (BZ receptors [1]; [14]): No significant reduction
alteration of [3H]Ro 15-1788 binding (BZ receptors [2]; 64-2048 nM, cortical membranes): not altered
dequenching of BD 623 fluorescence (benzodiazepine receptors [6]; large excess of benzodiazepine receptor ligands (flurazepam 100 μM), non-benzodiazepine receptor ligands 10 μM): did not effect a dequenching of fluorescence

NCCc1c[nH]c2ccc(O)cc12 [serotonin]
reduction in BD 621 or BD 607 binding (BZ receptors [1]; [14]): No significant reduction
alteration of [3H]Ro 15-1788 binding (BZ receptors [2]; 64-2048 nM, cortical membranes): not altered

O=C1OC2(c3ccc(O)cc3Oc3cc(O)ccc32)c2ccccc21 [sodium fluorescein]
quantum yield of the standard [13]: 0.92

Cc1nnc2n1-c1ccc(Cl)cc1C(c1ccccc1Cl)=NC2 [triazolam]
Ki (BZ receptors [1]; [17]): 0.7 ± 0.2 nM
Ki (BZ receptors [1]; [18]): 1.1 ± 0.3 nM
Ki (BZ receptors [2]): 1.6 ± 0.1 nM

CCOC(=O)c1cc2c(cn1)[nH]c1ccccc12 [β-CCE, ethyl-β-carboline-3-carboxylate]
Ki (BZ receptors [1]; [17]): 8.9 ± 1.9 nM
Ki (BZ receptors [1]; [18]): 6.4 ± 0.2 nM
Ki (BZ receptors [2]): 12 ± 3 nM
Ki (BZ receptors [9]): 3.7 ± 2.5 nM
Ki (BZ receptors [10]): 10 ± 0.3 nM
